{"sequences": {"note": "By UniProt entry, the sequences of proteins in these tests, tags left out.", "UniProt P30989, whole entry": "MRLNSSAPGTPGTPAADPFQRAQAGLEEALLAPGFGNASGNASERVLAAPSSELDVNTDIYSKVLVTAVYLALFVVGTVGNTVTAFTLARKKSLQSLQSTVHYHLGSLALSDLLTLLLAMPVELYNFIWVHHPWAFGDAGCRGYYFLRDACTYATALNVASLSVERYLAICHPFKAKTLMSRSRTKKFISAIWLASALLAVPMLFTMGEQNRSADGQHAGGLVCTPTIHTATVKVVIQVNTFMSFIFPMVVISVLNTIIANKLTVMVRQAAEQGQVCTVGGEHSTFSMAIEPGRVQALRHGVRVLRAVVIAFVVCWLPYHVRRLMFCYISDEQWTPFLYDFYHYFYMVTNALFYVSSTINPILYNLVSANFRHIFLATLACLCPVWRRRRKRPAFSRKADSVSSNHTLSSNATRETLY"}, "source": "paper PMC10459693", "about": "“Toward Stability Enhancement of NTS1R-Targeted Radioligands: Structural Interventions on [^99mTc]Tc-DT1” (Pharmaceutics, 2023)", "origin": "cited, not measured here", "molecular_target": "T1, human NTS1R (Homo sapiens, UniProt P30989)", "T1 construct": "Cell membrane homogenates from WiDr cells were collected; host or cells: WiDr human colorectal adenocarcinoma cells (membrane homogenates)", "set-up": "method as in PMID 16854083", "details": "unmodified DT1, WiDr cell membranes; cited from earlier work", "data": [{"substance": "N4-Gly-Arg-Arg-Pro-Tyr-Ile-Leu-OH (GRRPYIL) [DT1, N4-Gly^7-NT(8-13); N4 = 6-(carboxy)-1,4,8,11-tetraazaundecane]", "values": [{"measurement": "IC50", "value": "0.14 ± 0.01", "unit": "nM"}]}]}
